Source: patent US9730795B2, “Endosseous implant” (UNIVERSITE DE GENEVE, priority 2000, dated 2017)

Tested on: rat bone building cells, osteoblasts
Test: Osteogenesis (cell proliferation and bone protein synthesis) of rat osteoblasts plated on treated titanium implants
Assay type: cell-based
Conditions: compared with Table 1 / non treated implant

B1: 5: ethane-1,1,3-triphosphonic acid modified by linking the amine terminus (Methionine) of human Bone Morphogenic Protein type 2 (BMP-2) to one phosphonate group (conjugate, UniProt P12643 283-396, looked up)
Bone morphogenetic protein 2: QAKHKQRKRLKSSCKRHPLYVDFSDVGWNDWIVAPPGYHAFYCHGECPFPLADHLNSTNHAIVQTLVNSVNSKIPKACCVPTELSAISMLYLDENEKVVLKNYQDMVVEGCGCR
modifications: N-terminal ethane-1,1,3-triphosphonic acid conjugate
notes: ethane-1,1,3-triphosphonic acid modified by linking the amine terminus (Methionine) of human Bone Morphogenic Protein type 2 (BMP-2) to one phosphonate group
Osteogenesis (cell proliferation and bone protein synthesis), result in words: analogous test results as given in Table 1
